Columns and labels:
[1] = target: LRRK2 phospho-Ser935 (Homo sapiens, UniProt Q5S007); assay: Cellular LRRK2 phosphoserine 935 dephosphorylation spotblot assay in SH-SY5Y cells stably expressing 3xFlag-LRRK2; details: @ 5 μM for 2 h, pS935/total LRRK2
[2] = target: GST-tagged truncated LRRK2 containing residues 970 to 2527 (Homo sapiens, UniProt Q5S007); assay: In vitro LRRKtide peptide-substrate kinase assay, single dose testing (10 μM); type: biochemical; details: LRRKtide assay @ 10 μM inhibitor; GST-LRRK2 970-2527; 10 μM ATP; mean, N = 3; solvent control = 100%

Chains of the proteins cited; added tags and fusions are not shown. Residues count along the entry.
UniProt Q5S007, 970-2527: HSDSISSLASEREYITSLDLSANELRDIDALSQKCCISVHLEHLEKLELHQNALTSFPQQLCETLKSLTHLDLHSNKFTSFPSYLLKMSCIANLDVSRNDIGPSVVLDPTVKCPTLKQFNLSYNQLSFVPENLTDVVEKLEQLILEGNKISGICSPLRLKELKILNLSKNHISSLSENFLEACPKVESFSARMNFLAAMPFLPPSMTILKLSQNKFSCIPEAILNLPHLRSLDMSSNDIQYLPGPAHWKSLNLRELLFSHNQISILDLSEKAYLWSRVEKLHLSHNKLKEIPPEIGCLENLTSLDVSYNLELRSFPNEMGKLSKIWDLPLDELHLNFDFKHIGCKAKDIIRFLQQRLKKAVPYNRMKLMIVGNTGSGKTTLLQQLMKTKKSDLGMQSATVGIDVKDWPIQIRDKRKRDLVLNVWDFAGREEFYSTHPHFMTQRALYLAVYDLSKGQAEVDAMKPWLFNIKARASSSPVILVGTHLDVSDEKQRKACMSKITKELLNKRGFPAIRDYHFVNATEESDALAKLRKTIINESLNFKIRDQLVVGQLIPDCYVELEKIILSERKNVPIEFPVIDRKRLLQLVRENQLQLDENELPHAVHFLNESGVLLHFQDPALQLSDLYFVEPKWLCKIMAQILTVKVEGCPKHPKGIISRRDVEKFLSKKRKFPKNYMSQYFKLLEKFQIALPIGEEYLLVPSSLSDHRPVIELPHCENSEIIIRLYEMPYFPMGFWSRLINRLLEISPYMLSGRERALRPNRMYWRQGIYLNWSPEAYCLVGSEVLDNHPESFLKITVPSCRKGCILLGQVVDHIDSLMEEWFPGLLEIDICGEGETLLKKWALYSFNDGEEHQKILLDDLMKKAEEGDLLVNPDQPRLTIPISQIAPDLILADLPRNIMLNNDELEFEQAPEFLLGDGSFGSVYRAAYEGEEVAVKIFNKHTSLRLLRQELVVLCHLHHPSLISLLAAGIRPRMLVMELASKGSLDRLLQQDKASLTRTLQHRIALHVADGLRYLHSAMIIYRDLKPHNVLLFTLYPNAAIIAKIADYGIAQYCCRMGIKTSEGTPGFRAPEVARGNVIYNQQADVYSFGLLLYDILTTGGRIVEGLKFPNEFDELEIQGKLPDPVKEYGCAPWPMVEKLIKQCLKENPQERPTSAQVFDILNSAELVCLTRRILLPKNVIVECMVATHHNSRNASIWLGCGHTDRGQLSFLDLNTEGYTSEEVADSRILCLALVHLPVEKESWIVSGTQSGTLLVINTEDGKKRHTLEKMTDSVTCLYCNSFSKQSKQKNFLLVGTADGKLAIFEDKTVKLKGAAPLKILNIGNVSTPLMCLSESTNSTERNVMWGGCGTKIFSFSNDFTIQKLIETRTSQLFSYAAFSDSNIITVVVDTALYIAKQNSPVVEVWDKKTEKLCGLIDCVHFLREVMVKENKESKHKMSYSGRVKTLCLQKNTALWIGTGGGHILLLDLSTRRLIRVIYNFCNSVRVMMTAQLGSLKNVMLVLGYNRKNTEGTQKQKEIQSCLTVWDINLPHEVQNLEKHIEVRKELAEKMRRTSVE

Substance: Staurosporine, N-benzoyl-
- Phosphorylation level relative to solvent (%) (cellular pS935 assay) [1]: 67.82%
- % LRRKtide phosphorylation relative to solvent [2]: 2.31%

— article PMC4042160 (2014)
